Target: Poly [ADP-ribose] polymerase 1 (Homo sapiens, UniProt P09874)

The chains behind the UniProt entries cited, without tags or fusion partners.
UniProt P09874, whole entry: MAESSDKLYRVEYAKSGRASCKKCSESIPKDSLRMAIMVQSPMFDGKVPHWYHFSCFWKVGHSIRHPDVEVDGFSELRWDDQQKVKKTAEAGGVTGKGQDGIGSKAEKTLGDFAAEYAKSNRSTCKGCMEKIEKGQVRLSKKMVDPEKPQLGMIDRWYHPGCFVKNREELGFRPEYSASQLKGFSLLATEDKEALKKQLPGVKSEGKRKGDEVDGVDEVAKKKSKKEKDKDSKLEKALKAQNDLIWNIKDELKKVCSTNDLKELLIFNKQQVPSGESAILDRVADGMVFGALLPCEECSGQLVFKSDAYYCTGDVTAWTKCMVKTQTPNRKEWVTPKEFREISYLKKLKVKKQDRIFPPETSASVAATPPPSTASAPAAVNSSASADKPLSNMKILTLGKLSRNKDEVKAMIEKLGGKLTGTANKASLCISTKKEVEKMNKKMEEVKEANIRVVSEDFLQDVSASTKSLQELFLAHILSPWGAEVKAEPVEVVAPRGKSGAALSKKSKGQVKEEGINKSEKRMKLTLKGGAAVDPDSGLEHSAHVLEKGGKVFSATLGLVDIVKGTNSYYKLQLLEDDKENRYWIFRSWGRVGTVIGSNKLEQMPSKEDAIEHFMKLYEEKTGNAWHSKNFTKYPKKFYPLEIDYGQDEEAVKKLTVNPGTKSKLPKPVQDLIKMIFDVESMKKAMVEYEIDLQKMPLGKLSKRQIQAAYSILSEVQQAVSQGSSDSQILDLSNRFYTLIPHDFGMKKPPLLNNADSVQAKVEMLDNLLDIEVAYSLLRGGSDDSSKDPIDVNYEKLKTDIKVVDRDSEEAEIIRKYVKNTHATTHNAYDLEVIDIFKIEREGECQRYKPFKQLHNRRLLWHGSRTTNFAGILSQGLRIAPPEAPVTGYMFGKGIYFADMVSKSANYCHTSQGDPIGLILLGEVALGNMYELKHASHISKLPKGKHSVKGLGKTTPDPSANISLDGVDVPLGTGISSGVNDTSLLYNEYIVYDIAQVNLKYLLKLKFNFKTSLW

Work on Cc1nc2c(C(N)=O)cccc2[nH]1 yielded an IC50 of 1000 nM.
